Test results published in patent US8349318B2, “Use of specifically engineered enzymes to enhance the efficacy of prodrugs” (The Board of Trustees of the University of Illinois, priority 2008, dated 2013).

Test system: SKBR-3
Test: MTS cytotoxicity assay in breast cancer-derived cell line
Type: cell-based, human
Conditions: SKBR-3, 96 hours
Procedure: The cells were then exposed to varying amount of BVdU for 96 hours. The ability of the antibody-mutant dCK to phosphorylate BVdU was reflected by the reduced levels of cell viability compared with untreated control cells. Cell viability was measured using the MTS cytotoxicity assay according to the manufacturer's instructions (Promega). In short, the tetrazolium compound (3-(4,5-dimethylthiazol-2-yl)-5-(3-carboxymethoxyphenyl)-2-(4-sulfophenyl)-2H-tetrazolium, inner salt; MTS) was added to the cells. MTS was reduced by cellular dehydrogenase into formazan, which is soluble in tissue culture medium. Measuring formazan absorbance at a wavelength of 492 nm reflected levels of dehydrogenase enzyme activity found in metabolically-active cells. Since the production of formazan is proportional to the number of living cells, the intensity of the produced color is a good indication of the viability of the cells.

With “HERCEPTIN®: antibody immunologically-specific for the Her2/neu (erbB2) receptor” as the substance, how does the “effect on cell viability / proliferation” value read?
Its value is “no effect”.
